Source: patent publication EP2351737A1, “3-Amino-1-arylpropyl indoles and aza-substituted indoles” (F. Hoffmann-La Roche AG, priority 2005, dated 2007)

The chains behind the UniProt entries cited, without tags or fusion partners.
UniProt P31645, whole entry: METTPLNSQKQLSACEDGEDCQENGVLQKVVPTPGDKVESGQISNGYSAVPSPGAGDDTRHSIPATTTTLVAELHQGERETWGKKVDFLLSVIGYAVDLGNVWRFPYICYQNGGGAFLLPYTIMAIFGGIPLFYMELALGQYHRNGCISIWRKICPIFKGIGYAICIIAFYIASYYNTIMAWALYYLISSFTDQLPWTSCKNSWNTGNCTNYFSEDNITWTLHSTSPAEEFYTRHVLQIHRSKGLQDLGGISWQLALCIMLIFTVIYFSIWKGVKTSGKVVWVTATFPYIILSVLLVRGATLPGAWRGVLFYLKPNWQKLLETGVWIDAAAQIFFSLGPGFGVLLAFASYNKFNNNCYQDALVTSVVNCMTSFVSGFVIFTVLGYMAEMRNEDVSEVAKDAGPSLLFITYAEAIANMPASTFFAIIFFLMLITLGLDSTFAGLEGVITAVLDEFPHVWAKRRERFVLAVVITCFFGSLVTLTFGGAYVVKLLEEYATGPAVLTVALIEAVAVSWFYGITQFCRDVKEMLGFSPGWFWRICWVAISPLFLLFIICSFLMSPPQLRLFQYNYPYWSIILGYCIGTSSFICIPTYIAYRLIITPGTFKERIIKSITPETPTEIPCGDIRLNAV
UniProt P23975, whole entry: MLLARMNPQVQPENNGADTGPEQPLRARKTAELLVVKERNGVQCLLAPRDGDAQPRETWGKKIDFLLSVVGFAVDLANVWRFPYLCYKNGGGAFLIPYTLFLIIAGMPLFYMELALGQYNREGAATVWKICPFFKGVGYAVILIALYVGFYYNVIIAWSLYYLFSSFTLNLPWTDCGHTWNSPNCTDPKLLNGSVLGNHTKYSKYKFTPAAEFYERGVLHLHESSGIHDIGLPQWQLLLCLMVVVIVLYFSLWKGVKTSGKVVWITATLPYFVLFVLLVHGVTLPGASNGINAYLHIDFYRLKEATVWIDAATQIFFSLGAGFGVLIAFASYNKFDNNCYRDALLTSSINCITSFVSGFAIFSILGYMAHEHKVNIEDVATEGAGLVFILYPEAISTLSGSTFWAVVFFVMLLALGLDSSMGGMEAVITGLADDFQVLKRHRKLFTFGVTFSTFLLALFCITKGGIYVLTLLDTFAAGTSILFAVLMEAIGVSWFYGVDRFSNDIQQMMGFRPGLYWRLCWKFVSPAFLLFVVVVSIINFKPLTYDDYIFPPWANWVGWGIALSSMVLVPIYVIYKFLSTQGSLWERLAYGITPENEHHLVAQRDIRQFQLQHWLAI

Key:
[1] = target: T1, Human Serotonin Transporter (hSERT) (Homo sapiens, UniProt P31645); experiment: Human Serotonin Transporter (hSERT) Scintillation Proximity Assay (SPA), competition with [3H]-Citalopram; format: binding; conditions: membranes of HEK-293 cells expressing recombinant hSERT, Ki by Cheng-Prusoff
T1 construct: expressed in transfected cells; membranes prepared from them

[2] = target: Human Norepinephrine Transporter (hNET) (Homo sapiens, UniProt P23975); experiment: Human Norepinephrine Transporter (hNET) Scintillation Proximity Assay (SPA), competition with [3H]-Nisoxetine; conditions: membranes of HEK-293 cells expressing recombinant hNET, Ki by Cheng-Prusoff

Row | Substance | pKi SERT [1] | pKi NET [2]
1 | 7-Chloro-5-(3-methylamino-1-phenyl-propyl)-1H-indole-3-carbonitrile [Compound 124] | 7.26 | 6.57
2 | 7-Fluoro-5-(3-methylamino-1-phenyl-propyl)-1H-indole-3-carbonitrile [Compound 125] | 7.85 | 6.49
